PubChem BioAssay AID504734 (The Scripps Research Institute Molecular Screening Center, 2011)
The list shows a part of the results, in another mix than the full data. Calls of active or inactive are those of the source.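 How the source made its calls: active means inhibition above the mean over all tested compounds plus 3 SD (cut at about 21% in these data); inactive means the rest.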

Chains of the proteins cited; added tags and fusions are not shown. Lines headed by an entry give the natural chain unless they say otherwise; changes in a name come on top.
UniProt Q9NR96: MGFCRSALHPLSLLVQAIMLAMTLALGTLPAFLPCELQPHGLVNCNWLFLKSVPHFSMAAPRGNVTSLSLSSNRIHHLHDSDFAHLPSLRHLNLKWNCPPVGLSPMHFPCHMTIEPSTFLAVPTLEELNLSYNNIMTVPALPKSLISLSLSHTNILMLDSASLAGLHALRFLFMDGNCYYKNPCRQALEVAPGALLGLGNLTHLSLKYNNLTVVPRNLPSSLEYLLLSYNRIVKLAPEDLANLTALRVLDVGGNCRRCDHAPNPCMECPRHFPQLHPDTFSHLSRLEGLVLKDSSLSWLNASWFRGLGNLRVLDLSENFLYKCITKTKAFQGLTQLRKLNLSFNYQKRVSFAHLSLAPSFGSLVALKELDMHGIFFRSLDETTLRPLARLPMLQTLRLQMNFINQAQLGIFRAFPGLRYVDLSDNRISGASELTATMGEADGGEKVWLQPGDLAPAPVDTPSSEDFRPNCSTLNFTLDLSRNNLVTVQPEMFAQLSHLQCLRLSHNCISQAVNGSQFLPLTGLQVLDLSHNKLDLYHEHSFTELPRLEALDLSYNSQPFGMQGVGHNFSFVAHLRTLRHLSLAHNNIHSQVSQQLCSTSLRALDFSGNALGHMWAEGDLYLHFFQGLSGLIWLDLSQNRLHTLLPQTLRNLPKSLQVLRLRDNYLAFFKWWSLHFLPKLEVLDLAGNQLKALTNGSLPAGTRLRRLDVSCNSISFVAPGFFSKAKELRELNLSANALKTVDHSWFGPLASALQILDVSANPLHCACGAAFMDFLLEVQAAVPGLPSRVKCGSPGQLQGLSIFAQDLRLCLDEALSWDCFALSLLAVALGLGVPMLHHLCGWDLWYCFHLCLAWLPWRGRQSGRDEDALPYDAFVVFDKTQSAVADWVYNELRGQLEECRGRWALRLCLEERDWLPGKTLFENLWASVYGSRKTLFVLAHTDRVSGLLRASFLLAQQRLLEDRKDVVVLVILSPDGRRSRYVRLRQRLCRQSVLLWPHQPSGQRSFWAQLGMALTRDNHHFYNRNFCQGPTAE
UniProt Q99836, whole entry, looked up: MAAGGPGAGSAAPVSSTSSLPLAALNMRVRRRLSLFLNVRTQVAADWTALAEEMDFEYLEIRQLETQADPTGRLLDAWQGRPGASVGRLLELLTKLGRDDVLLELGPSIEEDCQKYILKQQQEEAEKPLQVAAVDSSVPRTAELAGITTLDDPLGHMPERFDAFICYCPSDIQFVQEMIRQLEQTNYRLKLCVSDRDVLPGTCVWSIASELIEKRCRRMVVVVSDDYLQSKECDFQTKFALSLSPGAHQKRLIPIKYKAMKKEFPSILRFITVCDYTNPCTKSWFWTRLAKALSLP

The molecules below were run against Toll-like receptor 9 (Homo sapiens) + Myeloid differentiation primary response protein MyD88 (Homo sapiens) (UniProt Q9NR96+Q99836) (assay: inhibitors of TLR9-MyD88 association in cells, primary screen, cell-based, CHO, BLA complementation, fluorescence (AID 504734;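 further: 0% = DMSO only wells and 100% = clavulanate BLA inhibitor control wells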)). Settings: CHO BLA complementation TLR9-MyD88, CCF4 FRET ratio; at 4.98 µM; hits give high values.

**Q.** For `O=C(OC1CN2CCC1CC2)c1cccc2[nH]cnc12` (stereo not given), which inhibition is on record?
**A.** The inhibition was inactive: -5.34%.

**Q.** With `ClCCSc1nnc(-c2cccnc2)o1` as the molecule, how does the inhibition read?
**A.** The inhibition was inactive: -3.55%.

**Q.** With `COC(=O)C1(C)COP(=O)(N2CCCCCC2)OC1` (stereo not given) as the molecule, how does the inhibition read?
**A.** The inhibition was inactive: -12.8%.

**Q.** For `CC(C)c1ccc(OP(=O)(Nc2ccccn2)Oc2ccccc2F)cc1` (stereo not given), which inhibition is on record?
**A.** The inhibition was inactive: -1.51%.

**Q.** For `COP(=O)(OC)N1CC1c1ccccc1` (stereo not given), which inhibition is on record?
**A.** The inhibition was inactive: -4.41%.

**Q.** For `Cc1cc(SC(NC(=O)c2ccccc2)C(Cl)(Cl)Cl)nc(C(C)C)n1` (stereo not given), which inhibition is on record?
**A.** The inhibition was inactive: 3.88%.

**Q.** For `CCCCOc1ccc(C(=O)NCC2(N3CCCCC3)CCCCC2)cc1OC`, which inhibition is on record?
**A.** Its inhibition is inactive: -3.52%.

**Q.** How did the inhibition turn out when `O=C(O)C(O)c1ccc(N(CCCl)CCCl)cc1` (stereo not given) was run?
**A.** Its inhibition is inactive: 2.58%.

**Q.** For `CCOC(=O)Nc1ccc([As](=O)(O)O)c(O)c1`, which inhibition is on record?
**A.** Its inhibition is inactive: -1.02%.

**Q.** For `CC1CCNP(=O)(N(CCCl)CCCl)O1` (stereo not given), which inhibition is on record?
**A.** The inhibition was inactive: -0.82%.

**Q.** For `Cc1cc(SC(NC=O)C(Cl)(Cl)Cl)ncn1` (stereo not given), which inhibition is on record?
**A.** Its inhibition is inactive: 1.15%.

**Q.** `O=P(Nc1ccccn1)(c1cccc2ccccc12)c1cccc2ccccc12` was tested. Which inhibition did it give?
**A.** Its inhibition is inactive: -2.05%.

**Q.** How did the inhibition turn out when `O=[N+]([O-])c1ccc(Nc2ccc(Oc3ccc([N+](=O)[O-])cc3[N+](=O)[O-])cc2)c([N+](=O)[O-])c1` was run?
**A.** The inhibition was inactive: 3.83%.

**Q.** `CCOC(=O)Nc1cccc([As](=O)(O)O)c1` was tested. Which inhibition did it give?
**A.** The inhibition was inactive: -3.47%.

**Q.** How did the inhibition turn out when `O=C(O)C(=O)c1ccc(N(CCCl)CCCl)cc1` was run?
**A.** The inhibition was inactive: -1.16%.

**Q.** Which inhibition does the source give for `O=C(Nc1ccncc1[N+](=O)[O-])c1ccc([N+](=O)[O-])cc1[N+](=O)[O-]` here?
**A.** Its inhibition is inactive: -1.84%.

**Q.** `O=C(COc1ccccc1)OC1CN2CCC1CC2` (stereo not given) was tested. Which inhibition did it give?
**A.** The inhibition was inactive: -6.32%.

**Q.** How did the inhibition turn out when `COP1(=S)c2c(C)nn(CCC#N)c2N=C(c2ccc(F)cc2)N1C` (stereo not given) was run?
**A.** Its inhibition is inactive: 1.88%.

**Q.** With `CCC(C)N(CC(C)C)C(=S)SC(NC(C)=O)C(Cl)(Cl)Cl` (stereo not given) as the molecule, how does the inhibition read?
**A.** Its inhibition is inactive: -6.53%.

**Q.** Which inhibition does the source give for `CSc1ccc(Nc2c([N+](=O)[O-])cc([N+](=O)[O-])cc2[N+](=O)[O-])cc1` here?
**A.** The inhibition was inactive: -5.47%.

**Q.** `O=C(OC1CN2CCC1CC2)c1cccc([N+](=O)[O-])c1` (stereo not given) was tested. Which inhibition did it give?
**A.** The inhibition was inactive: 5.22%.

**Q.** For `CCOC(=O)c1ccc(NC(=O)C(C)(CCl)SC)cc1` (stereo not given), which inhibition is on record?
**A.** The inhibition was inactive: 1.33%.

**Q.** Which inhibition does the source give for `O=[N+]([O-])c1cc([N+](=O)[O-])c(CCNc2ccccc2)c([N+](=O)[O-])c1` here?
**A.** The inhibition was inactive: -5.83%.

**Q.** Which inhibition does the source give for `CCc1nc2c(n1)c1c(non1O)c1c2no[n+]1[O-]` here?
**A.** Its inhibition is inactive: 10.3%.

**Q.** `Cc1ccc(NP(=O)(Oc2ccccc2)Oc2ccccc2)nc1` was tested. Which inhibition did it give?
**A.** Its inhibition is inactive: -1.04%.

**Q.** For `CC(=O)N1C2C3N(C(C)=O)C1C1N(C(C)=O)C(C(N1C(C)=O)N3C(C)=O)N2C(C)=O`, which inhibition is on record?
**A.** Its inhibition is inactive: 7.72%.

**Q.** `O=[N+]([O-])c1cccc2n[nH]nc12` was tested. Which inhibition did it give?
**A.** The inhibition was inactive: -5.63%.

**Q.** `COc1ccc(C2=NCC(CBr)S2)cc1` (stereo not given) was tested. Which inhibition did it give?
**A.** Its inhibition is inactive: 1.92%.

**Q.** `CC1CCN(C(=O)Oc2c(Cl)cc(Cl)c3cccnc23)CC1` was tested. Which inhibition did it give?
**A.** Its inhibition is inactive: -7.62%.

**Q.** With `c1cc(-c2nn[nH]n2)ccc1-c1nn[nH]n1` as the molecule, how does the inhibition read?
**A.** Its inhibition is inactive: -2.78%.

**Q.** For `CN(C)C(=O)OCCc1n(C)cc[n+]1C`, which inhibition is on record?
**A.** Its inhibition is inactive: -3.74%.

**Q.** Which inhibition does the source give for `CC(C)c1nc(Nc2ccccc2)n(P(=O)(N(C)C)N(C)C)n1` here?
**A.** Its inhibition is inactive: -13.9%.

**Q.** Which inhibition does the source give for `CC(C)=N/N=C(\N)N[N+](=O)[O-]` here?
**A.** The inhibition was inactive: -6.78%.

**Q.** Which inhibition does the source give for `CCN(/C(=N/P(=O)(N1CCOCC1)N1CCOCC1)N1CCOCC1)c1ccc(OC)cc1` here?
**A.** The inhibition was inactive: -6.85%.

**Q.** How did the inhibition turn out when `C[N+]1=C2C=CC=CC=C2SC12C([N+](=O)[O-])=CC([N+](=O)[O-])=C[C-]2[N+](=O)[O-]` (stereo not given) was run?
**A.** The inhibition was inactive: 13.3%.

**Q.** How did the inhibition turn out when `Nc1ccc([As](=O)(O)c2ccc(N)cc2)cc1` was run?
**A.** The inhibition was inactive: -5.36%.

**Q.** Which inhibition does the source give for `O=C(Nc1cc([As](=O)(O)O)ccc1O)c1ccccc1` here?
**A.** The inhibition was inactive: -2.92%.

**Q.** `O=P1(N(CCCl)CCCl)OCCCS1` (stereo not given) was tested. Which inhibition did it give?
**A.** The inhibition was inactive: -0.99%.

**Q.** Which inhibition does the source give for `O=C(O)CNc1ccc([As](=O)(O)O)cc1` here?
**A.** Its inhibition is inactive: -0.82%.

**Q.** Which inhibition does the source give for `COC(=O)C1(C)COP(=O)(Nc2ccccc2)OC1` (stereo not given) here?
**A.** Its inhibition is inactive: -3.41%.

**Q.** How did the inhibition turn out when `O=[N+]([O-])c1cccc(NC2=NCC(CBr)S2)c1` (stereo not given) was run?
**A.** Its inhibition is inactive: 4.35%.

**Q.** How did the inhibition turn out when `O=[N+]([O-])c1ncn(CCn2ncnc2[N+](=O)[O-])n1` was run?
**A.** The inhibition was inactive: 10.9%.

**Q.** With `CC(C)(C)C(=O)NC(Sc1ccncn1)C(Cl)(Cl)Cl` (stereo not given) as the molecule, how does the inhibition read?
**A.** Its inhibition is inactive: -6.82%.

**Q.** `CN(C(=O)Cc1ccc(Cl)c(Cl)c1)[C@H]1CCCC[C@@H]1N1CCCC1` was tested. Which inhibition did it give?
**A.** Its inhibition is inactive: -3.83%.

**Q.** Which inhibition does the source give for `Cc1ccc(NP(=O)(Oc2ccccc2F)Oc2ccccc2F)nc1` here?
**A.** Its inhibition is inactive: -12.3%.

**Q.** With `Cc1cc(SC(NC(=O)c2ccc(F)cc2)C(Cl)(Cl)Cl)ncn1` (stereo not given) as the molecule, how does the inhibition read?
**A.** The inhibition was inactive: -0.11%.

**Q.** For `CCOP(=O)(Nc1ccccc1)OCC`, which inhibition is on record?
**A.** The inhibition was inactive: -3.21%.

**Q.** `O=P(Nc1nc2ccc(Cl)cc2s1)(c1ccccc1)c1ccccc1` was tested. Which inhibition did it give?
**A.** Its inhibition is inactive: -5.81%.

**Q.** `CN(C)P(=O)(N(C)C)n1c(Nc2ccccc2)nnc1-c1ccccc1` was tested. Which inhibition did it give?
**A.** The inhibition was inactive: -5.92%.

**Q.** With `CCCC1OP(N)(=O)OCC1CC` (stereo not given) as the molecule, how does the inhibition read?
**A.** Its inhibition is inactive: 0.69%.

**Q.** For `CC(=O)Nc1ccc([As](=O)(O)O)cc1`, which inhibition is on record?
**A.** Its inhibition is inactive: 0.09%.

**Q.** `O=C(O)c1ccccc1[As](=O)(O)O` was tested. Which inhibition did it give?
**A.** The inhibition was inactive: 7.26%.

**Q.** Which inhibition does the source give for `Nc1cccc2ccc([As](=O)(O)O)cc12` here?
**A.** Its inhibition is inactive: -5.01%.

**Q.** Which inhibition does the source give for `CCN(N=Nc1nonc1N)c1nonc1N` here?
**A.** The inhibition was inactive: 5.29%.

**Q.** `CN1CCCC(OC(=O)C(c2ccccc2)c2ccccc2)C1` (stereo not given) was tested. Which inhibition did it give?
**A.** Its inhibition is inactive: -6.04%.

**Q.** With `Clc1ccc(Cl)c(NC2=NCC(CBr)S2)c1` (stereo not given) as the molecule, how does the inhibition read?
**A.** Its inhibition is inactive: 5.93%.

**Q.** With `COc1ccccc1OP(=O)(Nc1ccc(C)cn1)Oc1ccccc1OC` as the molecule, how does the inhibition read?
**A.** The inhibition was inactive: 0.76%.

**Q.** `Cc1ccc(N/C(=N/P(=O)(N2CCOCC2)N2CCOCC2)N2CCOCC2)cc1` was tested. Which inhibition did it give?
**A.** The inhibition was inactive: -9.13%.

**Q.** How did the inhibition turn out when `CN(C(=O)Cc1ccc(Cl)c(Cl)c1)[C@H]1CCCC[C@H]1N1CCCC1` was run?
**A.** Its inhibition is inactive: -1.87%.

**Q.** Which inhibition does the source give for `NC(=O)c1cc([N+](=O)[O-])cc([N+](=O)[O-])c1N` here?
**A.** The inhibition was inactive: 5.04%.

**Q.** `O=C(NC(Sc1ccncn1)C(Cl)(Cl)Cl)c1ccccc1` (stereo not given) was tested. Which inhibition did it give?
**A.** The inhibition was inactive: 2.19%.

**Q.** `Oc1ccccc1CNc1ccccn1` was tested. Which inhibition did it give?
**A.** Its inhibition is inactive: -1.73%.

**Q.** Which inhibition does the source give for `Nc1cc(N)c2nonc2c1[N+](=O)[O-]` here?
**A.** Its inhibition is inactive: 2.4%.

**Q.** With `CC(C)CC(=O)NC(Sc1ccc(Cl)cc1)C(Cl)(Cl)Cl` (stereo not given) as the molecule, how does the inhibition read?
**A.** Its inhibition is inactive: 7%.

**Q.** For `CC(C)(C)C(=O)NC(Sc1ccccc1)C(Cl)(Cl)Cl` (stereo not given), which inhibition is on record?
**A.** The inhibition was inactive: 3.97%.
